Test results: ChEMBL document CHEMBL1140322, “New pyrrolo[2,1-f]purine-2,4-dione and imidazo[2,1-f]purine-2,4-dione derivatives as potent and selective human A3 adenosine receptor antagonists” (J Med Chem, 2005)

The chains behind the UniProt entries cited, without tags or fusion partners.
UniProt P30542, whole entry: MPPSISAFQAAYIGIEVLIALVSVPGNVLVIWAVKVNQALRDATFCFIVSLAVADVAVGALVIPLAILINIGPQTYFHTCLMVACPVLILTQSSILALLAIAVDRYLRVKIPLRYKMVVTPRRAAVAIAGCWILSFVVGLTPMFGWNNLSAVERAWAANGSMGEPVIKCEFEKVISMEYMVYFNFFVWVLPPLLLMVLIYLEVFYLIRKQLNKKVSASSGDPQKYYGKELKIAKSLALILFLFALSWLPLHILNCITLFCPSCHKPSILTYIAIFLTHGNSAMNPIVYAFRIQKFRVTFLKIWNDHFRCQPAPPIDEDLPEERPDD

Experiments:
Adenosine receptor A2a = Adenosine receptor A2a (Homo sapiens, UniProt P29274); assay: Inhibition of [3H]-ZM 241385 binding to human adenosine A2a receptor expressed in CHO cells; type: cell-based
Adenosine receptor A1 = Adenosine receptor A1 (Homo sapiens, UniProt P30542); assay: Inhibition of [3H]DPCPX binding to human adenosine A1 receptor expressed in CHO cells; type: cell-based

Row | Compound | Ki (Adenosine receptor A2a) [nM] | Ki (Adenosine receptor A1) [nM]
1 | CCCn1c(=O)c2c(nc3n2CC(CC)=C3)n(Cc2ccccc2)c1=O | > 1000 | > 1000
2 | CCCn1c(=O)c2c(nc3[nH]c(C)cn32)n(Cc2ccccc2)c1=O | > 1000 | > 1000
